Source: publication PMC2528190 (Nucleic Acids Research, 2008)

Biological target: T1, DNA polymerase III α-subunit (Escherichia coli, UniProt P10443 1-1160)
T1 sequence: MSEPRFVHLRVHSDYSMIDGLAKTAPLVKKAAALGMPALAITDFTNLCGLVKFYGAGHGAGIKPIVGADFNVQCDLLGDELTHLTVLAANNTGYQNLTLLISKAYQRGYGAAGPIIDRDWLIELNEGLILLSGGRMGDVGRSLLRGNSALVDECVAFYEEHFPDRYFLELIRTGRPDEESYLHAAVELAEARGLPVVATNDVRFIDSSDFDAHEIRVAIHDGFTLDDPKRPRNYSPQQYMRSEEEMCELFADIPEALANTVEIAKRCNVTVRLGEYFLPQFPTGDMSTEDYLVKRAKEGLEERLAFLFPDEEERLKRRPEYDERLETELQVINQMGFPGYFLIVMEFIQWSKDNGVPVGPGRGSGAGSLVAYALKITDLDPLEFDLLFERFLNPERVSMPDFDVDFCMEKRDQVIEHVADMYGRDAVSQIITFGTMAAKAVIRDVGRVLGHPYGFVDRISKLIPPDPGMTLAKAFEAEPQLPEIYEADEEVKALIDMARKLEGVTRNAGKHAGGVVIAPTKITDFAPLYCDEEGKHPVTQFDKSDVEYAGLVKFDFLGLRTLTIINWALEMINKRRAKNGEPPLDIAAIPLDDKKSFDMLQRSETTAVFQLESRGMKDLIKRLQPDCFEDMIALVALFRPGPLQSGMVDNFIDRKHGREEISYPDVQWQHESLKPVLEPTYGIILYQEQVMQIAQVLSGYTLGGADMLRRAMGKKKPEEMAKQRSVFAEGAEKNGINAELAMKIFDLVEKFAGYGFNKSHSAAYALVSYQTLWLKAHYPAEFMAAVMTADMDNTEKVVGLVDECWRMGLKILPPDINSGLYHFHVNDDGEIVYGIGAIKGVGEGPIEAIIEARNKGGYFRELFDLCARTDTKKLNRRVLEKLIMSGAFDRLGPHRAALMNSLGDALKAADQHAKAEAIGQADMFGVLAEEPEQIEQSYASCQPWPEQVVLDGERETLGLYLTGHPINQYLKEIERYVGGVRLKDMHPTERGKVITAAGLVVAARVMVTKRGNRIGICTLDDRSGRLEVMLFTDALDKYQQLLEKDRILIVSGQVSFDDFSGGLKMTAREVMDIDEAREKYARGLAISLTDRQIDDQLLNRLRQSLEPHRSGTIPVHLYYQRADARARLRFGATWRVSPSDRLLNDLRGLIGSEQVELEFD
Test: NMR titration

B1: ɛ186:θ complex (complex)
chain 1: MSTAITRQIVLDTETTGMNQIGAHYEGHKIIEIGAVEVVNRRLTGNNFHVYLKPDRLVDPEAFGVHGIADEFLLDKPTFAEVADEFMDYIRGAELVIHNAAFDIGFMDYEFSLLKRDIPKTNTFCKVTDSLAVARKMFPGKRNSLDALCARYEIDNSKRTLHGALLDAQILAEVYLAMTGGQTSMA
chain 2: MLKNLAKLDQTEMDKVNVDLAAAGVAFKERYNMPVIAEAVEREQPEHLRSWFRERLIAHRLASVNLSRLPYEPKLK
Kd: > 100 µM
